The text below walks through data of PubChem BioAssay AID571 (The Scripps Research Institute Molecular Screening Center, 2007).

Protein sequences, listed by entry. Tags and fused reporters are not part of them.
UniProt P28566, whole entry: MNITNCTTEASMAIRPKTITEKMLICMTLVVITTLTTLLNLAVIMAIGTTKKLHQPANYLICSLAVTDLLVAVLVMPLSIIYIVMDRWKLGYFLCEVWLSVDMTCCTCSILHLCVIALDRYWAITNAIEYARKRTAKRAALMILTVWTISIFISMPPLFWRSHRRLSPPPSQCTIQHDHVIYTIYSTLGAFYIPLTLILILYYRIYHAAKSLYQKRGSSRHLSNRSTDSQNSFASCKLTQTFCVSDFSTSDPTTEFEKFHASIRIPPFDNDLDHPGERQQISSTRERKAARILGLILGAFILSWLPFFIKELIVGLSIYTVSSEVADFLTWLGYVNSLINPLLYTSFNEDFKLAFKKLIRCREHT

The structures appear in SMILES notation. Only a part is listed here, and it is no random draw. Calls of active or inactive are those of the source.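 The calls were made as follows: active = inhibition above a set limit, the mean inhibition across every tested compound plus 3 SD (cut at about 29% in these data); inactive = the rest.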

This assay deals with 5-hydroxytryptamine receptor 1E (Homo sapiens) (UniProt P28566). Kind of assay: blockade of human serotonin 5HT1E receptor – cell-based, HTS, primary screen (AID 571).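 Also: signal is the 460 over 535 nm emission ratio of beta-lactamase substrate; 0% = agonist plus DMSO wells and 100% = wells without agonist.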 As to conditions: CHO 5-HT1E Ga15 NFAT-bla reporter, FRET, antagonist; at 6 µM; active compounds read high.
For the molecule `N#CC1(Nc2ccccc2)CCN(CCc2ccccc2)CC1`, the inhibition (commonly the change of the read-out against control, counted positive when it falls) was inactive: -7.27%. With `O=C(OC1CN2CCC1CC2)C1c2ccccc2Oc2ccccc21` (configuration not stated), the inhibition is inactive: -0.28%. On to `COc1ccc(NC2CCN(CCc3ccccc3)CC2)c(OC)c1`, for which the inhibition is inactive: 0.84%.

In the case of `Fc1ccccc1NC1CCN(Cc2ccccc2)CC1`, the inhibition was inactive: 5.3%. For the molecule `CCC(CO)(C(=O)OC1CN2CCC1CC2)c1ccccc1` (configuration not stated), the inhibition is inactive: 2.4%. With `CCOc1ncccc1C(=O)NCC1(N2CCOCC2)CCCCC1`, the inhibition was inactive: 4.91%.

In the case of `N/C(=N\O)c1c(N)no[n+]1[O-]`, the inhibition is inactive: -12.4%.
